# Only a part is listed here, and it is no random draw. Results filed as inconclusive are left out. A call without a number means that no potency is given here. Active and inactive are the calls of the source. Calls follow the shape of the dose curve; as a rule, active = well fitted cell-killing curve with a large enough effect in the repeat runs; inconclusive = weak or mixed curves, or effect the other way; inactive = flat fitted curve, though single readings scatter.
# Assay: cAMP Responsive Elements (CRE) small molecule agonists, cell-based qHTS assay: qHTS cell viability counter screen (AID 2060914); also: nearly all actives have a fitted effect of over 50% in size
# Details: CRE-bla HEK293T viability, CellTiter-Glo luminescence, 5 h; series mostly up to 92.4 µM
# Summary of the method: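 HEK 293T CRE-bla; DMEM + 10% dialyzed FBS, 25 mM HEPES; 18 h pre-incubation; compound 3 h, 37 °C/5% CO2; CellTiter-Glo added after reporter read; luminescence after 30 min RT.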
row,Structure (SMILES),Potency
1,CCOP(=S)(CC)Sc1ccccc1 (centres undefined),inactive
2,CCCCC(CC)CO[P+](=O)OCC(CC)CCCC (centres undefined),inactive
3,O=C1C2CC=CCC2C(=O)N1SC(Cl)(Cl)C(Cl)Cl (centres undefined),inactive
4,CC(C)OP(=S)(OC(C)C)SCCNS(=O)(=O)c1ccccc1,inactive
